Bioassay records as filed in PubChem BioAssay.
Hits are enriched below; roughly 2.1% of the tested compounds scored in any of these assays.
Yeast UUG start – modulators of yeast start codon fidelity, primary screen, whole organism, S. cerevisiae, single point, plate reader | AID 602363, 2012 | S. cerevisiae UUG-firefly luciferase reporter, luminescence/redox ratio | activity score, % at 18.7 µM | hit rate 0.13% among 350,000;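 active = replicate mean at a twofold rise or more, about +100% in these data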;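 also: firefly luciferase made from a UUG start codon reports start codon fidelity; reporter light over untreated wells divided by growth signal over untreated wells; some hits fall short of that in this replicate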
miR-122 sensor – miR-122 Renilla sensor signal increase in Huh7, primary screen, miR-122 inhibitor project, cell-based, single point, plate reader; 340,000 tested, 0.3% active; Huh7 miR-122 Renilla luciferase sensor, 48 h; neutral wells = 0, positive control = 100; activation (reporter increase), % at 12.5 µM; AID 602342, 2012;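 active = mean replicate activation score at least 90 and every replicate individually at or above 90; inconclusive = only one of the two criteria met; inactive = neither criterion met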;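 also: higher luciferase means less miR-122 activity so hits act as miR-122 inhibitors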
PGC1a acetyl inh – inhibitors of PGC1a acetylation signal, primary screen, cell-based, U2OS, AlphaScreen, inhibitor mode | AlphaScreen anti-acetyl-lysine; with virally co-expressed GCN5 acetyltransferase | inhibition, % at 15.6 µM | 350,000 tested, 0.17% active | AID 651687, 2012;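 active = every replicate shows inhibition of at least 40%; inconclusive = mean inhibition at least 40% but some replicate below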;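 also: 0% = neutral control wells and 100% = positive control wells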
MITF TRPM1 inh – inhibitors of MITF-dependent TRPM1 promoter reporter, primary screen, cell-based, SK-MEL-5, single point, luciferase; SK-MEL-5 TRPM1 promoter luciferase, 24 h; inhibition, % at 12.5 µM; 330,000 tested, 0.83% active; AID 488899, 2010;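 active = mean inhibition across replicates of 60% or more, whatever share of single replicates reaches that level; inconclusive = some that reach 60%, reason not given; inactive = mean inhibition across replicates below 60%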
Wnt bcat act – Wnt/beta-catenin pathway activators, primary screen, cell-based, plate reader, single point | Wnt/beta-catenin reporter cell assay, activator | activation, % at 9.35 µM | 300,000 tested, 1.2% active | AID 743398, 2014; in the data active = activation above about 30%, passing the limit was not always enough; inconclusive = no clear call, values can overlap the other calls;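 also: 0% = neutral control wells and 100% = positive control wells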
MITF act – activators of MITF-driven TRPM1 promoter reporter, primary screen, cell-based, SK-MEL-5, luciferase, single point; AID 588334, 2011; 300,000 tested, 0.75% active; activation, % at 12.5 µM; SK-MEL-5 TRPM1-promoter luciferase, 24 h; % of positive control, neutral wells = 0;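 active = mean activation of at least 80% with every replicate also reaching 80%; inconclusive = mean reaches 80% but some replicate falls short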;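 also: 0% = neutral control wells and 100% = parthenolide positive control wells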
Numbers without * were called inactive; [ ] = dose if it differs, or a comment.

Results for CC(C)[C@H](NC(=O)OCc1ccccc1)C(=O)OCC(=O)c1ccccc1 ?
Yeast UUG start: -7; miR-122 sensor: -3; PGC1a acetyl inh: 1; MITF TRPM1 inh: -79; Wnt bcat act: 35*; MITF act: inconclusive

How did O=C(N[C@@H](Cc1ccccc1)C(=O)CCl)OCc1ccccc1 do in these assays?
Yeast UUG start: -29; miR-122 sensor: 4; PGC1a acetyl inh: -45; MITF TRPM1 inh: 96*; Wnt bcat act: -11; MITF act: -95

What do the screens show for `Brc1ccc(-c2noc(C3CCCCC3)n2)cc1`?
MITF TRPM1 inh: -50; Wnt bcat act: 56*; MITF act: 58

What do the screens show for `OC[C@H]1O[C@@H](c2nc(-c3ccc(Br)cc3)no2)C[C@@H]1O`?
Yeast UUG start: -28; miR-122 sensor: 0; PGC1a acetyl inh: 9; Wnt bcat act: 27

Results for c1ccc(-c2noc(C3CCCCC3)n2)nc1 ?
Yeast UUG start: -8; miR-122 sensor: 4; PGC1a acetyl inh: 3; MITF TRPM1 inh: -68; Wnt bcat act: 36*; MITF act: 72

Results for c1ccc(-c2noc(C34CC5CC(CC(C5)C3)C4)n2)nc1 ?
Yeast UUG start: -20; miR-122 sensor: -1; PGC1a acetyl inh: -6; MITF TRPM1 inh: -33; MITF act: 44

Results for CCOCc1nnc(NS(C)(=O)=O)s1 ?
Yeast UUG start: -5; miR-122 sensor: 268*; MITF TRPM1 inh: -6; MITF act: 8

What do the screens show for `CN1C(=O)c2cc(NC(=O)Nc3ccc(F)cc3)ccc2OC[C@H]2O[C@H](CC(=O)NC3CCC3)CC[C@@H]21`?
Yeast UUG start: 12; miR-122 sensor: -25[16.7 µM]; PGC1a acetyl inh: 2

Results for C[C@@H]1CCCCO[C@@H](CN(C)C)[C@H](C)CN([C@@H](C)CO)C(=O)c2cc(NS(=O)(=O)c3cn(C)cn3)ccc2O1 ?
miR-122 sensor: 1[16.7 µM]; PGC1a acetyl inh: -6

Results for CO[C@H]1CN(C)C(=O)c2cc(NC(=O)Nc3ccc(Cl)c(Cl)c3)ccc2OC[C@H](C)NC[C@H]1C ?
miR-122 sensor: -51[16.7 µM]; PGC1a acetyl inh: 5

Results for Cc1ccc(NC(=O)Nc2cccc(C)n2)c(C)c1 ?
Yeast UUG start: -13; miR-122 sensor: 9; PGC1a acetyl inh: 5; MITF TRPM1 inh: -22; Wnt bcat act: 39*; MITF act: 22

How did COc1cccc(NC(=O)N(C)C[C@H]2Oc3cc(/C=C/c4ccccc4)ccc3S(=O)(=O)N([C@@H](C)CO)C[C@@H]2C)c1 do in these assays?
Yeast UUG start: -3; PGC1a acetyl inh: 11

Overlap with the part before: two compounds; new compounds follow.
Results for Cc1ccc(NC(=O)Nc2cccc(C)n2)c(C)c1 ?
Yeast UUG start: -13; miR-122 sensor: 9; PGC1a acetyl inh: 5; MITF TRPM1 inh: -22; Wnt bcat act: 39*; MITF act: 22

How did COc1cccc(NC(=O)N(C)C[C@H]2Oc3cc(/C=C/c4ccccc4)ccc3S(=O)(=O)N([C@@H](C)CO)C[C@@H]2C)c1 do in these assays?
Yeast UUG start: -3; PGC1a acetyl inh: 11

How did O=C(NN=C1CCCC1)c1n[nH]c2c1CCCC2 do in these assays?
MITF TRPM1 inh: -15; Wnt bcat act: 54*; MITF act: 16

How did Clc1ncccc1-c1nnn(-c2ccccc2)n1 do in these assays?
Yeast UUG start: -35; miR-122 sensor: 12; Wnt bcat act: 34*; MITF act: 99*

Results for Fc1ccc(-n2nnc(-c3cccnc3Cl)n2)cc1 ?
Yeast UUG start: -23; miR-122 sensor: -1; PGC1a acetyl inh: 0; MITF TRPM1 inh: -66; Wnt bcat act: 17; MITF act: 65

Results for COc1ncccc1-c1nnn(-c2ccccc2)n1 ?
Yeast UUG start: -17; Wnt bcat act: 53*

Results for Clc1ccc(-n2nnc(-c3cccnc3Cl)n2)cc1Cl ?
Yeast UUG start: -17; miR-122 sensor: -7; PGC1a acetyl inh: 9; MITF TRPM1 inh: -84; Wnt bcat act: 30; MITF act: 95*

How did O=C(c1ccccc1)C(O)(Cc1ccccc1)c1ccccc1 (stereo not given) do in these assays?
Yeast UUG start: 6; miR-122 sensor: 168*; PGC1a acetyl inh: -54; MITF TRPM1 inh: 1; Wnt bcat act: 0; MITF act: -2

How did CC(O)(C(=O)c1ccccc1)c1ccccc1 (stereo not given) do in these assays?
Yeast UUG start: -20; miR-122 sensor: 0; PGC1a acetyl inh: 3; Wnt bcat act: -1
